Marks after values point to notes of the source that are not given here.
Key:
[1] = n-octanol-water partition coefficient, shake flask method; settings: 25 °C
[2] = In vitro skin permeation, Franz diffusion cells
[3] = 24 h penetration, n = 3

| Compound | Log P (n-octanol-water partition coefficient) [1] | LT, lag time ([2]; n = 3) [h] | also measured |
| --- | --- | --- | --- |
| CC(C)Cc1ccc(C(C)C(=O)O)cc1.CC(C)Cc1ccc(C(C)C(=O)O)cc1.CC(C)OC(=O)[C@@H](N)CCCCN [L-lysine isopropyl ester bis(ibuprofenate)] | 1.055 ± 0.006 |  |  |
| L-proline isopropyl ester ibuprofenate | 1.053 ± 0.048 | 1.428 ± 0.031 | Q%24 h, the percentage of the applied dose permeated after 24 h ([2]; 24 h, n = 3): 15.660 ± 0.435%; Cumulative Permeation Mass ([2]; 24 h, saturated solution in PBS pH 7.4, mass of compound, n = 3): 658.661 ± 18.295 ^b µg·cm^−2; EF, enhancement factor ([2]; relative to IBU): 2.11; JSS, steady-state flux ([2]; saturated solution in PBS pH 7.4, n = 3): 56.589 ± 2.204 µg IBU cm^−2 h^−1 |
| CC(C)Cc1ccc(C(C)C(=O)O)cc1.CC(C)OC(=O)[C@@H](N)CCCCN [L-lysine isopropyl ester ibuprofenate] | 1.047 ± 0.018 |  |  |
| glycine isopropyl ester ibuprofenate [[GlyOiPr][IBU]] | 0.645 ± 0.012 |  | Accumulation in the skin [3]: 785.483 ± 95.862 µg IBU g^−1 |
| CC(C)Cc1ccc(C(C)C(=O)O)cc1.CC(C)OC(=O)[C@@H](N)C(C)C [L-valine isopropyl ester ibuprofenate] |  | 1.443 ± 0.122 |  |
